Measurements taken from patent US20230000842A1, “METHODS OF TREATING CARTILAGE DISORDERS THROUGH INHIBITION OF CLK AND DYRK” (SAMUMED, LLC, priority 2019, published 2023).

By UniProt entry, the sequences of proteins in these tests, tags left out.
UniProt P49760, whole entry: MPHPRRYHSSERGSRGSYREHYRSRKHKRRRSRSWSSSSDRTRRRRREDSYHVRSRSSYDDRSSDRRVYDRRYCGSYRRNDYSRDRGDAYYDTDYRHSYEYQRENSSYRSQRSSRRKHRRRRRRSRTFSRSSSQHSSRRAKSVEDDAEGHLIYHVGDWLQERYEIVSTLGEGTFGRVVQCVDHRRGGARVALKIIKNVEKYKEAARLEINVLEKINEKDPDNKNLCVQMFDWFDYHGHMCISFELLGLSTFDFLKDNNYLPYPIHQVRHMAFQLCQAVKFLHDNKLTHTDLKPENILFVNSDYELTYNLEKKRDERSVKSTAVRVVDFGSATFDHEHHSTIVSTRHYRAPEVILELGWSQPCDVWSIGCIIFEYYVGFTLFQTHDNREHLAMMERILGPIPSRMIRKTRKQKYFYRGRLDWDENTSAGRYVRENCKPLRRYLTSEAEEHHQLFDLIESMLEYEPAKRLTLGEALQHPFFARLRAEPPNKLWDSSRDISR

Assays:
[1] = molecular target: CLK2 kinase (Homo sapiens, UniProt P49760); test: CLK2 kinase activity assay (Z-lyte FRET); assay type: biochemical; conditions: Z-lyte Ser/Thr 6 peptide, 60 μM ATP, 1 h at room temperature;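 further: FRET read-out as coumarin to fluorescein emission ratio, unphosphorylated peptide as 0% and phosphorylated peptide as 100% controls, duplicate reactions, non-linear regression fit of dose-response curves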
[2] = tested on: MMP-3 levels in supernatant of chondrocytes stimulated with IL1-β; test: Chondrocyte protection assay compound screening (MMP-3 LANCE Ultra); conditions: IL1-β 10 ng/mL overnight, 11-point curves from 3 μM to 0.05 nM

With `CN1CCN(c2ccc(NC(=O)c3n[nH]c4ccc(-c5cncc(NC(=O)c6c(F)cccc6F)c5)cc34)cn2)CC1` the EC50 [1] was 1 nM, the EC50 [2] was ≥ 3000 nM and the “Maximum % Inhibition” value [2] was 54.9%.
